The source of these data is patent US4587233A, “Use of Arg-Phe-amide derivatives” (Board of Trustees of the Leland Stanford Junior University, priority 1983, dated 1986).

The subject of this data set is Blood Pressure of Anesthetized Rats. The data set can be described thus: Blood pressure bioassay in urethane-anesthetized rats, peptides injected intravenously. Format: in vivo, male Sprague-Dawley rats. The note with it: anesthetized rat. Here is the method: Bioassays were conducted on male Sprague-Dawley rats, weighing 250-450 g, and anesthetized by an intraperitoneal injection of a 25 percent urethane solution (1.25 g/kg). The left femoral artery was cannulated with PE 50 polyethylene tubing for monitoring of blood pressure with a pressure transducer RP-1500 (Narco Biosystems). Injections of peptides or drugs were made via a PE 10 tubing into the left femoral vein. Respiration was measured by an impedance method by which the respiratory movements of the chest are registered. The method gives indirect information on respiration amplitude. Heart and respiration frequency were obtained by using biotachometer couplers which measure mean frequencies. Body temperature was measured in the rectum with a thermistor (Yellow Springs Instruments) and maintained between 36.5° and 37.5° C. Peptides or drugs were dissolved in sterile H2 O and the volumes injected intravenously were usually 0.1 ml and never exceeded 0.2 ml.

On to `CSCC[C@H](NC(=O)[C@@H](N)Cc1ccccc1)C(=O)N[C@@H](CCCN=C(N)N)C(=O)N[C@@H](Cc1ccccc1)C(N)=O` [FMRF--NH2, Phe-Met-Arg-Phe-NH2], for which the “Time for which respiration movements of the thorax decreased or stopped” value (128 nmol/kg i.v.) was in the range of 1 to 5 s. For the same compound, the Arrhythmia after injection entry (at higher doses, i.v.) is listed as “often arrhythmia developed immediately after injection causing a short-lasting drop in heart rate”.
